## Measured affinities in a library of Ab-14 light chain variants

Binding partner: SARS-CoV-2 spike HR2 peptide, sequence PDVDLGDISGINAS.

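The parent was found by panning a naive human phage display library on the peptide. The variants were designed computationally from a first round of random CDR variants and then made and measured. Group labels follow the data file (Ctrl: baseline library sampled from a position-specific scoring matrix, with some repeated check sequences; Rand: our label for a block that the file lists under HC and that is probably the random mutants of the ten best first-round binders; En: ensemble of fine-tuned language models; GP: Gaussian process model; HC: hill climbing; Gen: genetic algorithm; Gibbs: Gibbs sampling; a sequence that several methods proposed may carry one label only). Affinity was read by AlphaSeq, a pooled yeast mating assay with surface-displayed partners. Binding brings cells together so that they mate, and sequencing counts the barcode pairs among the diploids. The ratio of observed to expected reads was calibrated, replicate by replicate, on BCL2-family standards whose Kd was known from biolayer interferometry. Each pool was mated in six replicate cultures.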

Parent: Ab-14, a human scFv built as VH, a 15-residue (Gly4Ser)3 linker, VL. Only the CDRs of the light chain vary.
VH: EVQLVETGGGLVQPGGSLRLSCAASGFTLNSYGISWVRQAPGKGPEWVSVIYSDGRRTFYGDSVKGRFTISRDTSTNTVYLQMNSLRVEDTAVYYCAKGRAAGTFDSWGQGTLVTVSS
VL: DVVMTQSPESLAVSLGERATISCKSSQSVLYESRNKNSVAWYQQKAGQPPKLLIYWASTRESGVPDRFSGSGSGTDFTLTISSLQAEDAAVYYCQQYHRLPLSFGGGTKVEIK

Variants are written as CDR1, CDR2 and CDR3 of the light chain (limits as in the source). Parent: KSSQSVLYESRNKNSVA, WASTRES, QQYHRLPLS.
Values are log10 of the apparent Kd in nM; lower means stronger binding.
The mean shown is taken over the replicates in which the pair was detected.
Where no diploid with the target was found in any replicate, the entry reads "no signal": below detection, most likely a poor binder, though not proof of it.
Empty control strains, which show no peptide, gave a signal in 4% of pairings with all light chain designs; the median was 2.64 and 95% of these signals were weaker than 1.59. No background was subtracted. Also given: how often the same scFv was detected with the empty control strains.

"mean, log10 nM",detected,signal with controls,CDR-L1,CDR-L2,CDR-L3,group
1.51,5/6,1/18,KSSQSVLYESRNKNSVA,NASCRES,QQYHRLPLK,Ctrl
0.31,6/6,0/18,KFSQMSNSMSVSKSAVA,EMSTRPE,QQYNRLPLM,En_Gen
0.57,6/6,2/18,MVSMNIYGEYRNRDNVA,HASMREK,QCYDRLPLS,En_Gen
2.89,3/6,2/18,KSSQSVTPESNNKNSVA,WASTRES,QQYHRLPLS,Ctrl
1.07,6/6,1/18,KLVNFMNRGTHHTSNIA,DAQQRLD,QQYARLPLA,En_Gen
0.73,6/6,0/18,MFSQLMEYGSRYKNSVA,QASVREN,QQYHWLPLS,En_HC
0.81,6/6,1/18,TISGMTNQAMSKHNSVA,NVTMRPE,QQYHRLPLS,En_Gen
1.97,4/6,0/18,VSSMPVLYESRNKNSVA,KASHRES,QQYHRLPLS,Ctrl
0.32,6/6,0/18,KVYPSYLYESRNKNSVA,QASTRES,QQYHLLPLS,GP_HC
-0.07,6/6,3/18,KQSQSVLYESRNKNSVA,DASTRES,QQYHRLPLV,GP_HC
0.83,6/6,1/18,HIDILNRGEYLKQDPIA,NADHREQ,QQYFHLPLA,En_Gibbs
1.86,5/6,1/18,KISMLINQTFEQGNNVA,EMATREN,QQYHRLPLS,En_Gen
1.97,6/6,0/18,KSSQSVLDESRNKNSVA,WASTREM,QQYHRLPLS,Ctrl
0.38,6/6,0/18,KLQQSEPYESRNKNSVA,EASTRES,QQYHRLPLS,GP_Gen
1.39,6/6,1/18,MMSQVTGSGQRHRNNVA,QTSMREI,QQYDRLPLI,En_Gen
1.34,3/6,1/18,KLSEFMKGLMMRTDSIA,DNNTRGS,QQYDRLPLS,En_Gen
0.74,6/6,0/18,MLYGLSMSMSKNKNNVA,EMTTREK,QQYDRLPLV,En_Gen
0.18,6/6,0/18,KMSMSVLYEDRHQNSVA,NASTRLM,QQYHRLPLS,GP_Gibbs
1.46,5/6,1/18,MLSQMWGLGSKVKNSVA,QASMRFN,QQYDRLPLI,En_Gen
no signal,0/6,0/18,KLYFNVGTVAHNTQSIA,DMERREE,QQYHRLPLS,En_HC
1.24,6/6,1/18,MISQIMNMGQFAINSVA,QASLRCN,QQYDRLPLE,En_Gen
1.49,6/6,1/18,KSSQSVLYESRNKNSVA,HAMTRES,QQYLRLPLS,Ctrl
-0.17,6/6,2/18,KLSQSDLYESRNKNNVA,NASLREM,QDYHRLPLS,GP_Gibbs
1.30,6/6,0/18,KSSQSVLYESQNINSVA,WASTRES,QQYHRLPLL,Ctrl
1.37,6/6,0/18,TVSQVHEMLSHNKDSVA,DMNTRES,QQYDRLPLS,En_HC
1.42,6/6,0/18,KSSQSVLDHSRNKNSVA,WASTRES,QQYHRLPLS,Ctrl
0.34,6/6,0/18,KISQMVNFESTHVNAVA,QMSTREE,QQYHRLPLS,En_HC
0.57,6/6,1/18,KASPSEMYESRMKNSVA,MASTRYE,QQYHRLPLS,GP_Gibbs
0.59,6/6,0/18,KLQQSVLYESRNKNSVA,GASTRCS,QQYHRLPLS,GP_Gen
0.11,6/6,0/18,IISQLMIWGYHAKNSIA,EAQTRDN,QQYDRLPLF,En_Gen
0.00,6/6,1/18,KLSQSVLYESRNKNSVA,EASQRCS,QQYHRLPLS,GP_Gen
0.76,6/6,0/18,NFGQKMALYTGDRYSIA,DATVEAD,QQYSRLPLT,En_Gibbs
1.60,2/6,1/18,MFSQTVMYESTMRNNVA,QTSTRES,QQYDHLPLS,En_HC
0.21,6/6,0/18,KSSQEVDLESRNDNSVA,NASCRED,QQYHRLPLS,GP_Gibbs
0.76,6/6,0/18,KLQWSWLYMSRNWNSVA,DASQRES,QQYHRLPLS,GP_Gibbs
-0.21,6/6,3/18,KLSQSMLYESRNKNSVA,NASTRME,QQYHRLPLS,GP_Gen
1.52,6/6,1/18,MMSQVTGQGMRHRNNVA,QTETREP,QQYDRLPLI,En_Gen
0.53,6/6,1/18,MMSQVTGYGTRMRNNVA,QTSVREA,QQYDRLPLI,En_Gen
0.94,6/6,2/18,KSSGSVLYEDRNVNSVA,NASQRLM,QQYHRLPLS,GP_Gibbs
0.96,6/6,0/18,TISTLMRYESSLKNAIA,NAQTRES,QQYHRLPIS,En_HC
-0.38,6/6,0/18,KASQSWLYESRNKNSVA,GASTRES,QQYHRLPLS,GP_HC
1.02,6/6,1/18,KISMLINQTFEQSNNVA,EMATREK,QQYNRLPLS,En_Gen
1.34,6/6,1/18,KLVGVSDNDRNPSHNIA,DVSMLDN,QQYHRLPLD,En_Gibbs
-0.33,6/6,1/18,KLVQSELYESRNKNNVA,AASQRES,QQYHRLPLS,GP_Gibbs
-0.10,6/6,1/18,KLSQMNLYESRNKNSVA,NASTRES,QQYHRLPLS,GP_Gen
0.34,6/6,0/18,KFFQSGLDDQRNDNSVA,SASTRFS,QQYHRLPLS,GP_Gibbs
no signal,0/6,0/18,KSSQSVLKESRNGNSVA,WASTRES,QQYHWLPLS,Ctrl
1.00,6/6,0/18,KLQQGMDYESRNDASVA,EASTRES,QQYHRLPLS,GP_Gibbs
1.51,5/6,1/18,KVSEFMRGLMGRKDSIA,DNNTRQA,QQYDRLPLS,En_Gen
1.09,6/6,0/18,KITQTMRFEQKNSNNIA,EVTLRSK,QQYYRLPLS,En_Gen
0.21,6/6,0/18,KLSQSVQYESRNKNSVA,NASTREV,QQYHRLPLS,GP_Gen
-0.27,6/6,2/18,KLEQSHLYESRNKNAVA,NASTRES,QQYHRLPLS,GP_Gen
2.22,6/6,1/18,KSYQSVIDNERNKNSVA,WASTRES,QQYHRLPLS,Ctrl
0.33,6/6,0/18,KLGSSTRFESSNKANIA,DNSTRES,QQYHRLPLS,En_HC
no signal,0/6,0/18,KLSMITGHLSTAKNNVA,EMETREN,QQYNRLPLA,En_Gen
1.90,6/6,1/18,SVTNETDGNGLKWNSVA,DAEELMT,QDYFRLPIT,En_Gibbs
1.05,4/6,0/18,KLSLFYRVETVNKNSVA,DNSTRES,QDYDRLPLS,En_HC
-0.24,6/6,0/18,KLSQSFLYESRNKNSVA,EASQRES,QQYHRLPLS,GP_Gen
no signal,0/6,0/18,YCSQSVLYESRNKNSVA,WASTRES,QQYVRLPLS,Ctrl
0.60,6/6,2/18,SFSQSVLYESVHRNNVA,QTSTRES,QQYDHLPLS,En_HC
0.11,6/6,2/18,KLSQSSLYESRNKNSVA,NASTRCS,QQYHRLPLS,GP_Gen
2.05,1/6,1/18,KMSQSVLYESRNKNHVA,WESTRES,QQYHRLPLE,Ctrl
0.08,6/6,2/18,KVSQSVLYEQRNKNSVA,EASTRLS,QQYHRLPLS,GP_Gen
0.18,6/6,1/18,KFSQKVDYEHRTKNSVA,NASTRES,QQYHRLPLS,GP_HC
0.61,6/6,1/18,KVSQSHLYESRNKNSVA,NASTRCS,QQYHRLPLS,GP_Gen
0.65,6/6,1/18,KVSQSVLYESQNKNSVA,WASTRES,QQYHRLPLS,Ctrl
0.08,6/6,4/18,KFSQSVLYEDRVKNSVA,NASQRES,QQYHRLPLS,GP_Gen
0.09,6/6,0/18,KSSWSVLYESNNKNSVA,NASTRED,QQYHRLPLS,GP_HC
0.28,6/6,1/18,KLSQSVLMESRNKNSVA,DASTRLS,QQYHRLPLS,GP_Gen
-0.04,6/6,1/18,YLFNQRSYGDSDQRNIA,NGRMRED,QQYARLPLT,En_Gibbs
1.33,6/6,0/18,CSEQSVLYESRNKNSLA,KASTREI,QQYHRLPLS,Rand
-0.46,6/6,1/18,KVPQSNLYESRNANNVA,SASQRES,QQYHRLPLS,GP_Gibbs
-0.46,6/6,0/18,KLSQSVLYESRNKNQVA,EASTRES,QQYHRLPLS,GP_Gen
-0.07,6/6,0/18,KYSQSVLYESRNKNNVA,GASTRES,QQYHRLPLS,GP_Gen
0.81,6/6,0/18,TLMFDGEYSDKENYAIA,DAIQTQV,QQYVRLPLS,En_Gibbs
-0.24,6/6,1/18,IISQSFLGAYHNKNSVA,QTSERGS,QQYDRLPLS,En_HC
1.43,6/6,0/18,TISQSSNMTSHGRNSVA,QAEMRES,QQYDRLPLS,En_HC
no signal,0/6,0/18,KSSQSVLYESRNKNSVA,WASTRES,KQYHRLPYS,Ctrl
0.13,6/6,0/18,KDSWSVLFESRNKNSVA,DASTRSS,QQYHRLPLS,GP_HC
0.26,6/6,0/18,KSSIMYLYESHNKNSVA,EASTRES,QQYHRLPLS,Rand

Of ten entries with the parent sequence, four were seen in most replicates (averages 0.34 to 2.37), three in one and three in none, so single entries are noisy.
The authors averaged sequences with at least three values out of six and counted those with two or fewer as poor binders.
Values of this round are not directly comparable with the first-round values of the same sequences.

Reference: Li et al. 2023, doi:10.1038/s41467-023-39022-2. File: FLAb, binding data.